{
  "source": "patent US20140106440A1",
  "about": "“ENHANCED ENZYMATIC CO2 CAPTURE TECHNIQUES ACCORDING TO SOLUTION PKA, TEMPERATURE AND/OR ENZYME CHARACTER” (CO2 SOLUTIONS INC., priority 2011, published 2014)",
  "key": {"[1]": {"assay": "Second-order kinetic rate constant of the reaction between alkanolamine and CO2 (no enzyme)", "type": "physicochemical"}, "[2]": {"system": "thermostable variant of hCA II ('5X' mutant, M5X)", "assay": "CO2 absorption rate in stirred cell, alkanolamine solution with 5X CA (M5X) enzyme", "conditions": "for kOV: 298 K"}},
  "note": "Only a part of the results on these compounds is given; other tests are left out.",
  "data": [
    {"smiles": "OCCN(CCO)CCO", "values": [
      {"measurement": "k2, second-order kinetic rate constant of the reaction between amine and CO2", "setting": "[1]; amine concentration 1.0 kmol m^−3", "value": 2.3, "unit": "m^3 kmol^−1 s^−1"},
      {"measurement": "k2, second-order kinetic rate constant of the reaction between amine and CO2", "setting": "[1]; amine concentration 2.0 kmol m^−3", "value": 2.7, "unit": "m^3 kmol^−1 s^−1"},
      {"measurement": "k2, second-order kinetic rate constant of the reaction between amine and CO2", "setting": "[1]; amine concentration 4.0 kmol m^−3", "value": 1.8, "unit": "m^3 kmol^−1 s^−1"},
      {"measurement": "observed kOV", "setting": "[2]; 100 mg/L M5X, aqueous amine, concentrations studied", "value": "100 to 120", "unit": "s⁻¹"},
      {"measurement": "kOV", "setting": "[2]; alkanolamine concentration 1.0 kmol m^−3, M5X 50 mg/L", "value": 82, "unit": "s⁻¹"},
      {"measurement": "kOV", "setting": "[2]; alkanolamine concentration 1.0 kmol m^−3, M5X 100 mg/L", "value": 108, "unit": "s⁻¹"},
      {"measurement": "kOV", "setting": "[2]; alkanolamine concentration 1.0 kmol m^−3, M5X 400 mg/L", "value": 226, "unit": "s⁻¹"},
      {"measurement": "kOV", "setting": "[2]; alkanolamine concentration 2.0 kmol m^−3, M5X 50 mg/L", "value": 73, "unit": "s⁻¹"},
      {"measurement": "kOV", "setting": "[2]; alkanolamine concentration 2.0 kmol m^−3, M5X 100 mg/L", "value": 115, "unit": "s⁻¹"},
      {"measurement": "kOV", "setting": "[2]; alkanolamine concentration 2.0 kmol m^−3, M5X 200 mg/L", "value": 153, "unit": "s⁻¹"},
      {"measurement": "kOV", "setting": "[2]; alkanolamine concentration 2.0 kmol m^−3, M5X 400 mg/L", "value": 185, "unit": "s⁻¹"}
    ]}
  ]
}
